System: HIP rats
Conditions: HIP rat kidneys

**Q.** CC(=O)N1CCC(NC(=O)NC23CC4CC(CC(C4)C2)C3)CC1 [APAU] was tested. Which “renal accumulation of HIF-2α” value (FIG. 22F) did it give?
**A.** lowered

**Q.** What about the “renal accumulation of HIF-1α” value (FIG. 22G) of the same compound?
**A.** lowered
